Chains of the proteins cited; added tags and fusions are not shown. Residues count along the entry.
UniProt P43144, 26-479: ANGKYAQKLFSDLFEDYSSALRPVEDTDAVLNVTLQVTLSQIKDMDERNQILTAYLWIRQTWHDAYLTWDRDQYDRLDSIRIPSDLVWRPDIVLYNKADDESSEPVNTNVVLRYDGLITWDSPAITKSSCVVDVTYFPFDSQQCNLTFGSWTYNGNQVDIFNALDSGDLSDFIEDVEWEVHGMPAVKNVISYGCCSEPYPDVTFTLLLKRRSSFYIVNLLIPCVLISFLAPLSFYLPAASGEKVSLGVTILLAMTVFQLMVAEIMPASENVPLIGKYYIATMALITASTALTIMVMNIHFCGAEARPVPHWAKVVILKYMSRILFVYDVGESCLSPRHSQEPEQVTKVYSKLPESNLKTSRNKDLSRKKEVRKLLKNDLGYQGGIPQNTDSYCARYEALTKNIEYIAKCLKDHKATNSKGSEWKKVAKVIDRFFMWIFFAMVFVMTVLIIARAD
UniProt Q9JLB5, 25-447: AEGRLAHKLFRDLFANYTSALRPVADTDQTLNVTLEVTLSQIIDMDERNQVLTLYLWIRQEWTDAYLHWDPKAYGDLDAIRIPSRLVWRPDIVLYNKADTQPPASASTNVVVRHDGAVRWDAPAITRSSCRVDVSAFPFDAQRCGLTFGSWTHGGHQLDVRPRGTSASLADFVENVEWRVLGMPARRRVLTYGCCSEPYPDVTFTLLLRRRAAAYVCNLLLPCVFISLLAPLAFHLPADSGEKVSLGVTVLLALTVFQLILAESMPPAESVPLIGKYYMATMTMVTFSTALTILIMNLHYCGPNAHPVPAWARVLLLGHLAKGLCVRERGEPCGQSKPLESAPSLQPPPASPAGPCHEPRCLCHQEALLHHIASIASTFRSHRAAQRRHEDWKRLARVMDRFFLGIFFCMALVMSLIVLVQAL

In paper PMC3726002 (Bioorganic & medicinal chemistry letters, 2011):

Molecular target: α9α10 nAChRs (Rattus norvegicus, UniProt P43144+Q9JLB5)
Format: cell-based
Details: ratio of α7 to α9α10 IC50

selectivity for the α9α10 subtype vs. the α7 subtype: 109 fold
SMILES: C(#Cc1cc(C#CCCC[n+]2cccc(-c3ccccc3)c2)cc(C#CCCC[n+]2cccc(-c3ccccc3)c2)c1)CCC[n+]1cccc(-c2ccccc2)c1.[Br-].[Br-].[Br-] [Compound 9e]
